The values that follow are results of earlier work, collected in patent publication US8937052B2, “Therapeutic protocols using hyaluronan” (Alchemia Oncology Pty Limited, priority 2005, dated 2015).

Structures can show the parent of a compound that is named as a salt.

For the data set the following is noted: Historical Comparator Publication 4; CPT-11 350 mg/m^2, […] infusion; cited from earlier work.

As for `CCc1c2c(nc3ccc(OC(=O)N4CCC(N5CCCCC5)CC4)cc13)-c1cc3c(c(=O)n1C2)COC(=O)[C@]3(O)CC` [CPT-11, Irinotecan hydrochloride], the “CPT-11 AUCtotal” value is 20500 ± 7100 ng·h/mL.
